Measured values as given in patent US10011659B2, “Compositions and methods for treating cancer resistant to a tyrosine kinase inhibitor (TKI)” (Yeda Research and Development Co. Ltd., priority 2014, dated 2018).

Assays:
Type in all cases: cell-based, human
[1] = test system: EGFR, HER2, HER3 and phosphorylated forms in PC9ER and H1975 cells; assay: Western blot after long-term exposure to anti-EGFR mAb; details: resistant cell lines
Procedure: Western blot analysis—Cells were grown under specified conditions or treated as indicated. Following the cells were washed twice with cold PBS and scraped into lysis buffer [50 mM Hepes (pH 7.5), 10% glycerol, 150 mM NaCl, 1% Triton X-100, 1 mM EDTA, 1 mM EGTA, 10 mM NaF, 0.1 mM Na3VO4, and a complete protease inhibitor cocktail]. Thereafter, lysates were centrifuged at 14,000 g for 15 minutes at 4° C. The supernatant was used for subsequent procedures. Western blot analyses were conducted following protein separation using gel electrophoresis and transfer to nitrocellulose membranes. Immunoblotting was performed according to the antibody manufacturers' recommendation. Blocking was done using 5% milk in PBST (0.5% Tween20 Sigma Cat#P9416). Antibody binding to membrane blots was detected using horseradish peroxidase—secondary antibodies (Jackson ImmunoResearch Laboratories), followed by treatment with ECL Western blotting detection reagents (GE Healthcare).

H1975 cells = assay: MTT cell survival assay; details: 3 days treatment with increasing doses; EGFR T790M
Procedure: (§1) Cell cultures—The H1975 (ATCC; NCI-H1975_CRL-5908) lung cancer cell line (EGFR mutations: L858R and T790M, ATCC; Rockville, Md.), PC9 and erlotinib-resistant PC9ER lung cancer cells (de1746-750+T790M) (described in 16) were maintained in RPMI-1640 supplemented with 10% FCS (Life technology) and antibiotics. PC9ER cells resistant to AZD-9291, denoted as PC9ER-AZDR cells, were generated by incubating PC9ER cells with AZD-9291 for three months. The dose, initially provided at 0.5 nM, was increased every 4 days per 1.5 fold up to 2.5 μM. NL20 (ATCC; NL20_CRL-2503), an immortalized human bronchial epithelial cell line (ATCC, Rockville, Md.) was maintained in F12K medium as recommended by the ATCC. Co-cultures in a ratio of 1:1 of WI38 (ATCC; CCL-75) and PC9ER or H1975 cells were maintained in DME medium supplemented with sodium pyruvate and fetal calf serum (FCS 5%; Life Technology).
(§2) Cell growth and survival—Cell survival was assessed using the 3-(4,5-dimethylthiazol-2-yl)-2,5 diphenyl tetrazolium bromide (MTT) assay (Sigma Cat#M2003). Cells were plated on 96-wells plates (2,000 cells/well) in triplicates. The medium was changed the following day and cells were treated as indicated. Following 3-4 days of incubation, MTT reagent was added to the cells for one hour followed by dissolving of the formazan crystals in SDS-DMF solution. Absorbance was measured using a microplate reader, Biorad Model 680, at 570 nm.

PC9ER cells = assay: MTT cell survival assay; details: 3 days treatment with increasing doses; EGFR T790M
Procedure: as §1, §2

PC9 cells = assay: MTT cell survival assay; details: 3 days treatment with increasing doses
Procedure: as §1, §2

HER2 promoter = assay: Luciferase promoter reporter assay; details: PC9ER and H1975 cells transfected with promoter-reporter plasmids
Excerpt: (§3) Luciferase promoter reporter assay—Plasmids containing the HER2 (pNeuLite) or HER3 (HPRM23883) promoter regions were purchased, respectively, from Addgene and Genecopeia. The HER2 promoter region was amplified by PCR using Pfu-Turbo DNA polymerase (Stratagene) with the primer sequences: Forward: 5′-[…]-3′ (SEQ ID NO: 13) and Reverse: 5′-[…]-3′ (SEQ ID NO: 14), and cloned in pGM3-Basic-Vector (Promega) (pHER2-prom-LucFF). The HER3 promoter region was cloned into the pGM3-Basic-Vector using BglII and HindIII restriction enzymes (pHER3-prom-LucFF). Renilla luciferase coding region from the pRL plasmid (Promega) cloned into the 3′ of mCherry coding region of the pmCherry-C1 vector (pmCheRNL) was a kind gift from Dr. Andrea Levi. The PC9ER and H1975 cell lines were co-transfected using Lipofectamine2000 (Invitrogen) with pHER2-prom-LucFF and pmCheRNL or pHER3-prom-LucRNL and pmCheRNL. Cells co-transfected with pmCheRNL and pGL3-Control-Vector (Promega) or pGL3-Basic-Vector served, respectively, as positive and negative controls. Cells were then selected for 3 weeks with puromycin (1 μg/ml). Stably co-transfected derivative cell lines were then treated with mAb 565 or Cetuximab. […] Luciferase activity was measured using VictorX Luminometer (Promega) and the Dual-Luciferase Reporter Assay (Promega).

HER3 promoter = assay: Luciferase promoter reporter assay; details: PC9ER and H1975 cells transfected with promoter-reporter plasmids
Excerpt: as §3

cetuximab
HER2 and HER3 and their active tyrosine phosphorylated forms [1]: up-regulation
expression levels of EGFR [1]: gradual decrease
cell survival (H1975 cells): exhibited resistance
cell survival (PC9ER cells): exhibited resistance
cell survival (PC9 cells): weakly inhibited
HER2 promoter activity (HER2 promoter): strongly increases
HER3 promoter activity (HER3 promoter): weakly increases
